# Reference: publication PMC6814797, “C-terminal–modified LY2510924: a versatile scaffold for targeting C-X-C chemokine receptor type 4” (Scientific Reports, 2019)
# Protein sequences, listed by entry. Tags and fused reporters are not part of them.
# UniProt P61073, whole entry: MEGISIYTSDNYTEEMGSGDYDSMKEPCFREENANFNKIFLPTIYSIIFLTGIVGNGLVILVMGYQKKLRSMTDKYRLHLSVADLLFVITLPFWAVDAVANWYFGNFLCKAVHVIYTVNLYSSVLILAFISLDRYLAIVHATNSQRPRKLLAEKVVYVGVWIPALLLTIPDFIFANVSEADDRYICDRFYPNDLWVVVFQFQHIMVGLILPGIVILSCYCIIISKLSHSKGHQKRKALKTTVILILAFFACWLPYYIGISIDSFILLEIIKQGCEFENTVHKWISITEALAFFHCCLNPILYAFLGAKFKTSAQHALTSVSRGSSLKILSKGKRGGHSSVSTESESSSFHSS
# Biological target: T1, CXCR4 (Homo sapiens, UniProt P61073)
# T1 construct: were determined with CCRF-CEM cells expressing endogenous CXCR4; endogenous in cells; host or cells: CCRF-CEM (human acute lymphoblastic leukemia) whole cells
# Assay: Competitive binding assay: displacement of 125I-SDF-1α from CXCR4-expressing CCRF-CEM cells
# Settings: CCRF-CEM 0.5 × 10^6 cells, 125I-SDF-1α 1 kBq, 0.25 nM SDF-1α, one hour, room temperature per method (b54 says 37 °C); mean ± SD, n = 3
# Method: CCRF-CEM cells and ^125I-SDF-1α were used for the competitive binding assay. The competitive binding assay was performed in a 96-well MultiScreen HTS FB plate (Merck) treated with 0.1% polyethyleneimine. RPMI-1640 containing 1% bovine serum albumin (BSA) and 0.05% Tween20 was used for the assay buffer. Briefly, 200-μL reaction mixtures containing CCRF-CEM (0.5 × 10^6 cells), ^125I-SDF-1α (1 kBq), SDF-1α (0.05 pmol; R&D Systems, Minneapolis, MN), and varying concentrations of CXCR4 antagonists were incubated at room temperature for one hour. After the incubation, the cells were washed three times with the assay buffer, and radioactivity counts of cells were determined with a gamma counter. The IC50 values were calculated by using GraphPad Prism version 5.04 (GraphPad Software, San Diego, CA).
# Since the purpose of this study was to assess in vivo accumulation to CXCR4-expressing cells, the apparent binding affinities were determined at 37 °C. […] The half-maximal inhibitory concentration (IC50) values of FRM001, its Ga-, Lu-, and Y-complexes, and other CXCR4 antagonists were determined with CCRF-CEM cells expressing endogenous CXCR4[34]. The displacement of ^125I-SDF-1α bound to the CXCR4 with the compounds was also evaluated in the presence of 0.25 nM of SDF-1α.
compound,measurement,value
"N=C(N)NCCC[C@@H]1NC(=O)[C@H](CCCNC(=N)N)NC(=O)[C@@H](Cc2ccc(O)cc2)NC(=O)CNC(=O)[C@H](Cc2ccc3ccccc3c2)NC1=O [FC131, cyclo[D-Tyr-Arg-Arg-2-Nal-Gly], reference compound]",IC50,13.1 ± 1.1 nM
